Results on 14 compounds are retold here after patent publication US11236106B2, “Cycloalkane-1,3-diamine derivative” (Daiichi Sankyo Company, Limited, priority 2018, dated 2022).

Structures can show the parent of a compound that is named as a salt. Where two headings read alike, the source gives them in different places.

What all share (test): cells
Holding throughout (conditions): Homo sapiens

Assay [1] deals with K562 cells.
Assay [2] has as its system MV-4-11 cells.
Assay [3] has as its system MOLM-13 cells.
Setting [4] is: K562, 72 h, read-out: GI50 (μM) Day3 K562.
The mark [5] stands for this setting: K562, 168 h, read-out: GI50 (μM) Day7 K562.
[6] abbreviates: MV4-11, 72 h, read-out: GI50 (μM) Day3 MV4;11, MV4;11, Day3.
[7] abbreviates: MV4-11, 168 h, read-out: GI50 (μM) Day7 MV4;11, MV4;11, Day7.
Setting [8] is: MOLM-13, 72 h, read-out: GI50 (μM) Day3 MOLM-13, MOLM-13, Day3.
[9] abbreviates: MOLM-13, 168 h, read-out: GI50 (μM) Day7 MOLM-13, MOLM-13, Day7.
Where [10] appears, read: K562, 72 h, read-out: GI50, cell growth inhibitory activity, K562, day 3.
Where [11] appears, read: K562, 168 h, read-out: GI50, cell growth inhibitory activity, K562, day 7.
Setting [12] is: MV4-11, 72 h, read-out: GI50, cell growth inhibitory activity, MV-4-11, day 3, MV-4-11 cells, cultured 3 days, assigned by order and values.
Setting [13] is: MV4-11, 168 h, read-out: GI50, cell growth inhibitory activity, MV-4-11, day 7, MV-4-11 cells, cultured 7 days, assigned by order and values.
The mark [14] stands for this setting: MOLM-13, 72 h, read-out: GI50, cell growth inhibitory activity, MOLM-13, day 3, MOLM-13 cells, cultured 3 days, assigned by order and values.
Where [15] appears, read: MOLM-13, 168 h, read-out: GI50, cell growth inhibitory activity, MOLM-13, day 7, MOLM-13 cells, cultured 7 days, assigned by order and values.

`Cc1ncc(-c2ccc(CN[C@H]3CC[C@@H](N(C)c4ncnc5sc(CC(F)(F)F)cc45)C3)cc2)cc1OC(F)F` [Example 58, (1R,3S)-N^3-({4-[5-(difluoromethoxy)-6-methylpyridin-3-yl]phenyl}methyl)-N^1-methyl-N^1-[6-(2,2,2-trifluoroethyl)thieno[2,3-d]pyrimidin-4-yl]cyclopentane-1,3-diamine hydrochloride]: the GI50 in assay [1] (setting [4]) is 1.03 µM; in assay [1] (setting [5]) it was 0.493 µM; in assay [2] (setting [6]) it was 0.399 µM; in assay [2] (setting [7]) it was 0.23 µM; in assay [3] (setting [8]) it was 0.804 µM; in assay [3] (setting [9]), 0.485 µM.
On to `CN(c1ncnc2sc(CC(F)(F)F)cc12)[C@@H]1CC[C@H](NCc2ccc(S(=O)(=O)N3CCCCCC3)cc2)C1` [Example 59, (1R,3S)-N^3-{[4-(azepane-1-sulfonyl)phenyl]methyl)-N^1methyl-N^1-[6-(2,2,2-trifluoroethyl)thieno[2,3-d]pyrimidin-4-yl]cyclopentane-1,3-diamine hydrochloride], for which the GI50 came out at 1.75 µM in assay [1] (setting [4]); 1.05 µM in assay [1] (setting [5]); 0.894 µM in assay [2] (setting [6]); 0.451 µM in assay [2] (setting [7]); 1.22 µM in assay [3] (setting [8]); 1.13 µM in assay [3] (setting [9]).
Consider `CNc1nc(N(C)[C@H]2C[C@@H](NCc3ccc(-n4ccnc4)cc3)C[C@H]2O)c2cc(CC(F)(F)F)sc2n1` [Example 61, (1R,2S,4R)-4-({[4-(1H-imidazol-1-yl)phenyl]methyl}amino)-2-{methyl[2-(methylamino)-6-(2,2,2-trifluoroethyl)thieno[2,3-d]pyrimidin-4-yl]amino}cyclopentan-1-ol hydrochloride], for which the GI50 in assay [1] (setting [4]) is 6.25 µM; in assay [1] (setting [5]), 5.74 µM; in assay [2] (setting [6]), 0.11 µM; in assay [2] (setting [7]), 0.0472 µM; in assay [3] (setting [8]), 0.974 µM; in assay [3] (setting [9]), 0.129 µM.
In the case of `CNc1nc(N(C)[C@H]2C[C@@H](NCc3ccc(-c4cnn(S(C)(=O)=O)c4)cc3)C[C@H]2O)c2cc(CC(F)(F)F)sc2n1` [Example 62, (1R,2S,4R)-4[({4[1-(methanesulfonyl)-1H-pyrazol-4-yl]phenyl}methyl)amino]-2-{methyl[2-(methylamino)-6-(2,2,2-trifluoroethyl)thieno[2,3-d]pyrimidin-4-yl]amino}cyclopentan-1-ol hydrochloride], the concentration for 50% growth inhibition (GI50) in assay [1] (setting [10]) was 2.69 µM; in assay [1] (setting [11]) it was 2.59 µM; in assay [2] (setting [12]), 0.113 µM; in assay [2] (setting [13]) it was 0.0666 µM; in assay [3] (setting [14]) it was 1.06 µM; in assay [3] (setting [15]), 0.199 µM.
Regarding `CN(c1ncnc2sc(CC(F)(F)F)cc12)[C@@H]1CC[C@H](NCc2ccc(-c3cnc4c(c3)OCCO4)cc2)C1` [Example 63, (1R,3S)-N^3-{[4-(2,3-dihydro[l,4]dioxino[2,3-b]pyridin-7-yl)phenyl]methyl}-N^1-methyl-N^1-[6-(2,2,2-trifluoroethyl)thieno[2,3-d]pyrimidin-4-yl]cyclopentane-1,3-diamine hydrochloride], the GI50 in assay [1] (setting [10]) was determined as 2.55 µM; in assay [1] (setting [11]) it was 1.48 µM; in assay [2] (setting [12]), 0.682 µM; in assay [2] (setting [13]), 0.445 µM; in assay [3] (setting [14]), 1.88 µM; in assay [3] (setting [15]) it was 1.21 µM.
Turning to `CNc1nc(N(C)[C@H]2C[C@@H](NCc3ccc(-c4cncc5c4ccn5S(C)(=O)=O)cc3)C[C@H]2O)c2cc(CC(F)(F)F)sc2n1` [Example 64, (1R,2S,4R)-4[({4-[1-(methanesulfonyl)-1H-pyrrolo[2,3-c]pyridin-4yl]phenyl}methyl)amino]-2-{methyl[2-(methylamino)-6-(2,2,2trifluoroethyl)thieno[2,3-d]pyrimidin-4-yl]amino}cyclopentan-1-ol hydrochloride], the concentration for 50% growth inhibition (GI50) in assay [1] (setting [10]) was 2.18 µM; in assay [1] (setting [11]), 1.67 µM; in assay [2] (setting [12]), 0.0563 µM; in assay [2] (setting [13]) it was 0.0355 µM; in assay [3] (setting [14]), 0.358 µM; in assay [3] (setting [15]) it was 0.0933 µM.
On to `COc1cc(-c2ccc(CN[C@H]3C[C@@H](O)[C@@H](N(C)c4ncnc5sc(CC(F)(F)F)cc45)C3)cc2)cnc1Cl` [Example 65, (1R,2S,4R)-4({[4-(6-chloro-5-methoxypyridin-3-yl)phenyl]methyl}amino)-2{methyl[6-(2,2,2-trifluoroethyl)thieno[2,3-d]pyrimidin-4-yl]amino}cyclopentan-1-ol hydrochloride], for which the concentration for 50% growth inhibition (GI50) was 2.85 µM in assay [1] (setting [10]); 2.64 µM in assay [1] (setting [11]); 0.0882 µM in assay [2] (setting [12]); 0.0557 µM in assay [2] (setting [13]); 1.46 µM in assay [3] (setting [14]); 0.143 µM in assay [3] (setting [15]).
In the case of `CNC(=O)c1cccc(-c2ccc(CN[C@H]3CC[C@@H](N(C)c4ncnc5sc(CC(F)(F)F)cc45)C3)cc2)c1` [Example 66, N-methyl-4′-({[|(1S,3R)-3-{methyl[6-(2,2,2-trifluoroethyl)thieno[2,3-d]pyrimidin-4-yl]amino}cyclopentyl]amino}methyl)[1,1′-biphenyl]-3-carboxamide hydrochloride], the GI50 turned out to be 1.61 µM in assay [1] (setting [10]); 0.865 µM in assay [1] (setting [11]); 0.286 µM in assay [2] (setting [12]); 0.177 µM in assay [2] (setting [13]); 0.978 µM in assay [3] (setting [14]); 0.54 µM in assay [3] (setting [15]).
As to `CNc1nc(N(C)[C@H]2C[C@@H](NCc3ccc(-c4cccc(S(=O)(=O)N(C)C)c4)cc3)C[C@H]2O)c2cc(CC(F)(F)F)sc2n1` [Example 69, 4′-({[(1R,3R,4S)-3-hydroxy-4-{methyl[2-(methylamino)-6-(2,2,2-trifluoroethyl)thieno[2,3-d]pyrimidin-4-yl]amino}cyclopentyl]amino}methyl)-N,N-dimethyl[1,1′-biphenyl]-3-sulfonamide hydrochloride], the GI50 in assay [1] (setting [10]) came to 1.53 µM; in assay [1] (setting [11]), 1.41 µM; in assay [2] (setting [12]) it was 0.0382 µM; in assay [2] (setting [13]), 0.0233 µM; in assay [3] (setting [14]) it was 0.63 µM; in assay [3] (setting [15]), 0.0637 µM.
Turning to `CN(c1ncnc2sc(CC(F)(F)F)cc12)[C@H]1C[C@@H](NCc2ccc(-c3cnc(Cl)c4cc[nH]c34)cc2)C[C@H]1O` [Example 70, (1R,2S,4R)-4-({[4-(4-chloro-1H-pyrrolo[3,2-c]pyridin-7-yl)phenyl]methyl}amino)-2-{methyl[6-(2,2,2-trifluoroethyl)thieno[2,3-d]pyrimidin-4-yl]amino}cyclopentan-1-ol hydrochloride], the GI50 in assay [1] (setting [10]) was determined as 2.57 µM; in assay [1] (setting [11]) it was 2.53 µM; in assay [2] (setting [12]) it was 0.0673 µM; in assay [2] (setting [13]), 0.0351 µM; in assay [3] (setting [14]), 0.948 µM; in assay [3] (setting [15]), 0.111 µM.
With `CN(c1ncnc2sc(CC(F)(F)F)cc12)[C@H]1C[C@@H](NCc2ccc(-c3cccc(N(C)S(C)(=O)=O)c3)cc2)C[C@H]1O` [Example 71, N-[4′-({[(1R,3R,4S)-3-hydroxy-4-{methyl[6-(2,2,2-trifluoroethyl)thieno[2,3-d]pyrimidin-4-yl]amino}cyclopentyl]amino}methyl)[1,1′-biphenyl]-3-yl]-N-methylmethanesulfonamide hydrochloride], the GI50 was 2.8 µM in assay [1] (setting [10]); 1.77 µM in assay [1] (setting [11]); 0.285 µM in assay [2] (setting [12]); 0.157 µM in assay [2] (setting [13]); 0.964 µM in assay [3] (setting [14]); 0.469 µM in assay [3] (setting [15]).
Consider `CN(c1ncnc2sc(CC(F)(F)F)cc12)[C@H]1C[C@@H](NCc2ccc(-c3cncc4c3cnn4C)cc2)C[C@H]1O` [Example 72, (1R,2S,4R)-4-({[4-(1-methyl-1H-pyrazolo[3,4-c]pyridin-4-yl)phenyl]methyl}amino)-2-{methyl[6-(2,2,2-trifluoroethyl)thieno[2,3-d]pyrimidin-4-yl]amino}cyclopentan-1-ol hydrochloride], for which the figures for the GI50 in assay [1] (setting [11]), in assay [2] (setting [13]) and in assay [3] (setting [15]) were 1 µM, 0.23 µM and 0.519 µM, respectively.
As for `CNc1nc(N(C)[C@H]2C[C@@H](NCc3ccc(-c4cnc(OC)c(OC)c4)cc3)C[C@H]2O)c2cc(CC(F)(F)F)sc2n1` [Example 73, (1R,2S,4R)-4-({[4-(5,6-dimethoxypyridin-3-yl)phenyl]methyl}amino)-2-{methyl[2-(methylamino)-6-(2,2,2-trifluoroethyl)thieno[2,3-d]pyrimidin-4-yl]amino}cyclopentan-1-ol hydrochloride], the GI50 was 0.723 µM in assay [1] (setting [11]), under 0.0195 µM in assay [2] (setting [13]) and 0.0389 µM in assay [3] (setting [15]).
In the case of `COc1cc(-c2ccc(CN[C@H]3C[C@@H](O)[C@@H](N(C)c4ncnc5sc(CC(F)(F)F)cc45)C3)cc2F)cnc1F` [Example 74, (1R,2S,4R)-4-({[3-fluoro-4-(6-fluoro-5-methoxypyridin-3-yl)phenyl]methyl}amino)-2-{methyl[6-(2,2,2-trifluoroethyl)thieno[2,3-d]pyrimidin-4-yl]amino}cyclopentan-1-ol hydrochloride], the GI50 in assay [1] (setting [11]) came to 2.55 µM; in assay [2] (setting [13]) it was 0.0455 µM; in assay [3] (setting [15]) it was 0.122 µM.

One may read the GI50 as the concentration giving 50% growth inhibition.
